# Laboratory results: IntAct's records for PubMed 24596249
# B1: Transducin-like enhancer protein 1 (Homo sapiens), Q04724 (parent)
# chain: MFPQSRHPTPHQAAGQPFKFTIPESLDRIKEEFQFLQAQYHSLKLECEKLASEKTEMQRHYVMYYEMSYGLNIEMHKQTEIAKRLNTICAQVIPFLSQEHQQQVAQAVERAKQVTMAELNAIIGQQQLQAQHLSHGHGPPVPLTPHPSGLQPPGIPPLGGSAGLLALSSALSGQSHLAIKDDKKHHDAEHHRDREPGTSNSLLVPDSLRGTDKRRNGPEFSNDIKKRKVDDKDSSHYDSDGDKSDDNLVVDVSNEDPSSPRASPAHSPRENGIDKNRLLKKDASSSPASTASSASSTSLKSKEMSLHEKASTPVLKSSTPTPRSDMPTPGTSATPGLRPGLGKPPAIDPLVNQAAAGLRTPLAVPGPYPAPFGMVPHAGMNGELTSPGAAYASLHNMSPQMSAAAAAAAVVAYGRSPMVGFDPPPHMRVPTIPPNLAGIPGGKPAYSFHVTADGQMQPVPFPPDALIGPGIPRHARQINTLNHGEVVCAVTISNPTRHVYTGGKGCVKVWDISHPGNKSPVSQLDCLNRDNYIRSCKLLPDGCTLIVGGEASTLSIWDLAAPTPRIKAELTSSAPACYALAISPDSKVCFSCCSDGNIAVWDLHNQTLVRQFQGHTDGASCIDISNDGTKLWTGGLDNTVRSWDLREGRQLQQHDFTSQIFSLGYCPTGEWLAVGMESSNVEVLHVNKPDKYQLHLHESCVLSLKFAYCGKWFVSTGKDNLLNAWRTPYGASIFQSKESSSVLSCDISVDDKYIVTGSGDKKATVYEVIY
# Variants of: B1
# Conditions: with h4_human H4C16
row,Variant,effect of a mutation on the interaction
1,L26D;I29D,decreasing interaction
